Test results reported in ChEMBL document CHEMBL4257593 (J Med Chem, 2018).

How the values were obtained:
[1] = organism: Homo sapiens; assay: Selectivity ratio of Kd for wild-type human partial length RIPK2 (M1 to K310 residues) to Kd for wild-type human partial length RIPK1 (M1 to K305 residues)
[2] = organism: Homo sapiens; assay: Selectivity ratio of Kd for wild-type human partial length RIPK3 (M1 to Q307 residues) to Kd for wild-type human partial length RIPK1 (M1 to K305 residues)
[3] = organism: Homo sapiens; assay: Selectivity ratio of Kd for wild-type human partial length RIPK4 (M1 to V303 residues) to Kd for wild-type human partial length RIPK1 (M1 to K305 residues)

Measured: Ratio

CCn1cc(-c2ccc3c(c2)CCN3C(=O)Cc2cccc(OC(F)(F)F)c2)c2c(N)ncnc21
1500: [1] | [2] | [3]
